ALDH1A1 inh: inhibitors of human aldehyde dehydrogenase 1A1; 220,000 compounds, 7.3% hits; P00352; Purified ALDH1A1, NADH fluorescence, propionaldehyde substrate; Potency, µM (titrated, usually from 75.3 µM), for the others: at the top dose activity, negative = inhibition, usual class: inhibitors; AID 1030; active means well fitted inhibition curve with a large enough effect, not every such curve was filed as active; inconclusive means small, poorly fitted or top-dose-only effect, or another doubt; inactive means no such curve, though single readings can be large or run the other way;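 further: potency means the concentration at half of the fitted maximal effect; plate controls were no enzyme wells and a reference inhibitor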
Sfp PPTase inh: blocks B. subtilis Sfp PPTase activity | hit rate 3.5% among 310,000 | Potency, µM, for inactives: max response, negative = inhibition, hits mostly inhibitors | Biochemical Sfp PPTase activity, qHTS | Q9F4F7; active = well fitted inhibition curve with a large enough effect; inconclusive = small, poorly fitted or top-dose-only effect, or another doubt; inactive = no such curve, though single readings can be large or run the other way;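 also: the enzyme is Sfp with the accession as filed and its product quenches rhodamine fluorescence; potency is read from the fitted curve at half-maximal effect; 0% = enzyme reaction without inhibitor and -100% = no enzyme wells; top concentration of the series not given in the record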
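Step 1, compound plus 15 nM Sfp-PPTase, 15 min, room temperature. Step 2, add rhodamine-CoA (5 uM) and BHQ-2-YbbR (12.5 uM). Step 3, read 525/598 nm fluorescence at 0 and 30 min.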
miR-21 reporter: miR-21 reporter, rising signal | AID 2288 | HeLa miR-21 FLuc reporter, luciferase, 48 h | 340,000 tested, under 10 active | Potency, µM (doses to about 38.3 µM), for inactives: at the top dose reporter change, positive = more light; active = well fitted rising curve with a large enough effect; inconclusive = small, poorly fitted or top-dose-only effect; inactive = no such curve, though single readings can be large or run the other way;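 note: % of control where 0% means no effect; miR-21 action dims this reporter so a rising signal means less miR-21 action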
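Using DMEM plus 10% FBS, HeLa miR-21-FLuc cells are incubated with test compounds (final up to about 40uM) for 48 hours; firefly luciferase signal is then imaged following reagent-mediated lysis.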
KDM4E inh: inhibitors of human JMJD2E histone demethylase; B2RXH2; JMJD2E catalytic domain, FDH-coupled NADH fluorescence (FDH is formaldehyde dehydrogenase); Potency, µM (doses to about 57.1 µM), without a hit: top-dose activity change, negative = inhibition, hits mostly inhibitors; 230,000 compounds, 1.6% hits; AID 2147; active means well fitted inhibition curve with a large enough effect, not every such curve was filed as active; inconclusive means small, poorly fitted or top-dose-only effect, or another doubt; inactive means no such curve, though single readings can be large or run the other way;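 further: potency means the concentration at half of the fitted maximal effect; 0% = wells with enzyme and -100% = buffer wells without enzyme; nearly all actives have a fitted effect of over 50% in size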
LMNA splice mod: changes lamin A minigene splicing in HeLa cells. HeLa LMNA splicing GFP/RFP minigene ratio, 48 h. Potency, µM (doses to about 46.1 µM), inactives show at the highest dose ratio change, negative = inhibition, hits mostly inhibitors. 200,000 compounds, 0.01% hits. AID 1487; active means well fitted inhibition curve with a large enough effect in the signal ratio, with a control signal flat, not every such curve was filed as active; inconclusive means small, poorly fitted or top-dose-only effect, or effect the other way, or a change in a side signal; the % refers to the signal ratio; further: potency means the concentration at half of the fitted maximal effect; on the % scale 0 is the no-effect control and ±100 the full control effect
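S3 HeLa cells stably expressing lamin A-EGFP splicing minigene plus DsRed2, 600 cells/well, 48 h compound exposure at 37C. Laser-scanning cytometry; analysed as GFP (500-530 nm)/RFP (575-640 nm) total intensity ratio; 0.5% DMSO vehicle.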
G9a block: G9a (human) methyltransferase inhibition | G9a H3K9 monomethylation, AlphaScreen, 2 h | Potency, µM (highest dose often 102 µM), for inactives: at the top dose activity, negative = inhibition, usual class: inhibitors | 350,000 compounds, 8.8% hits | AID 504332; further: potency means the concentration at half of the fitted maximal effect; on the % scale 0 is the no-effect control and ±100 the full control effect; nearly all actives have a fitted effect of over 75% in size
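AlphaScreen read-out: biotin-H3K9 peptide (500 nM) methylation by 20 nM enzyme with 20 uM SAM, 2 h at room temperature after 15 min compound preincubation; anti-monomethyl H3K9 antibody plus donor/acceptor beads, 10 min dark.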
* = called active by the depositor; ! = repeats disagree; [ ] = dose if it differs, or a comment. Rows were chosen to be rich in hits. Some 13% of all compounds tested hit in one or more screens of this group. Unless noted, the call rests on the fitted dose curve; in most records, active means well fitted curve in the direction sought with a large enough effect; inconclusive means small, poorly fitted or top-dose-only effect, or another doubt; inactive means no such curve, though single readings can be large; an effect the other way counts as inactive or inconclusive.

How did c1ccc(CCc2nn3c(C4COc5ccccc5O4)nnc3s2)cc1 (stereo not given) do in these assays?
ALDH1A1 inh: 10µM*; Sfp PPTase inh: -72%; miR-21 reporter: -30%; KDM4E inh: 3%; LMNA splice mod: -13%; G9a block: 3.5µM*

How did COc1ccccc1-c1nn2c(C3COc4ccccc4O3)nnc2s1 (stereo not given) do in these assays?
ALDH1A1 inh: inconclusive; Sfp PPTase inh: 20µM*; miR-21 reporter: -17%; KDM4E inh: inconclusive; LMNA splice mod: inconclusive; G9a block: 3.5µM*

Results for CCc1ccc2oc(-c3cccc(NC(=O)c4ccc(N5CCC(C)CC5)c([N+](=O)[O-])c4)c3)nc2c1 ?
miR-21 reporter: -10%; G9a block: -33%[59 µM]

What do the screens show for `Cc1ccc(NS(=O)(=O)c2cnc(N)nc2)c(C)c1`?
miR-21 reporter: -3%; LMNA splice mod: inconclusive; G9a block: -6%[59 µM]

How did CCC(CC)CN1CCN=C1Nc1ccccc1 do in these assays?
G9a block: -3%[2.33 µM]

How did CC(=O)c1cccc(NC(=O)COC(=O)CCC(=O)c2cccs2)c1 do in these assays?
G9a block: 10%[0.501 µM]

How did COC(=O)C(CCSC)NC(=O)c1cc2c(n(-c3ccccc3)c1=O)CC(C)(C)CC2=O (stereo not given) do in these assays?
ALDH1A1 inh: 28µM*; Sfp PPTase inh: 14%; miR-21 reporter: -7%; KDM4E inh: inconclusive; LMNA splice mod: 2%; G9a block: -24%[59 µM]

What do the screens show for `COC(=O)C(CCSC)NC(=O)c1cc2c(n(-c3ccc(C)cc3)c1=O)CCCC2=O` (stereo not given)?
ALDH1A1 inh: 7%; Sfp PPTase inh: 4%; miR-21 reporter: -3%; KDM4E inh: 13%; G9a block: 0.56µM*

What do the screens show for `O=C1CCCc2c1cc(C(=O)NCc1ccco1)c(=O)n2-c1ccc(Cl)cc1`?
ALDH1A1 inh: inconclusive; Sfp PPTase inh: 56µM*; miR-21 reporter: -7%; KDM4E inh: inconclusive; LMNA splice mod: 7%; G9a block: -41%[59 µM]

What do the screens show for `O=C(O)CNS(=O)(=O)c1ccc(C2CCCCC2)cc1`?
ALDH1A1 inh: 0%; Sfp PPTase inh: 20%; miR-21 reporter: -2%; KDM4E inh: -5%; LMNA splice mod: 15%[46 µM]; G9a block: inconclusive

What do the screens show for `CCN(CC)CCc1nc(-c2ccccc2)no1`?
ALDH1A1 inh: 2%[20.9 µM]; Sfp PPTase inh: 8%; KDM4E inh: -12%[25.5 µM]; LMNA splice mod: inconclusive; G9a block: 13µM*!

Results for O=C(O)CCc1nc(-c2ccccc2)no1 ?
ALDH1A1 inh: 14%; Sfp PPTase inh: 19%; miR-21 reporter: -1%; KDM4E inh: 2%; LMNA splice mod: 6%; G9a block: -10%[59 µM]

What do the screens show for `CC(=O)Nc1cccc(NC(=O)c2c(-c3ccccc3)c(-c3ccccc3)nn(C)c2=O)c1`?
miR-21 reporter: 17%; G9a block: -1%[59 µM]

How did O=C(NCc1nc2ccccc2[nH]1)c1ccc(Cl)c(S(=O)(=O)N2CCCC2)c1 do in these assays?
ALDH1A1 inh: -3%; Sfp PPTase inh: 19%; miR-21 reporter: 0%; KDM4E inh: -3%; LMNA splice mod: -10%; G9a block: 35µM*

Results for CSCC[C@H](NC(=O)c1ccc(Cl)c(S(=O)(=O)N2CCCC2)c1)c1nc2ccccc2[nH]1 ?
ALDH1A1 inh: inconclusive; Sfp PPTase inh: -1%; miR-21 reporter: -8%; KDM4E inh: 0%; LMNA splice mod: -14%; G9a block: 35µM*

How did CSCCC(NC(=O)c1cc(S(=O)(=O)N2CCOCC2)ccc1F)c1nc2ccccc2[nH]1 (stereo not given) do in these assays?
G9a block: -8%[2.33 µM]

How did CC(=O)Nc1ccc(OS(=O)(=O)c2ccc([N+](=O)[O-])cc2)cc1 do in these assays?
ALDH1A1 inh: 25µM*; Sfp PPTase inh: 3%; miR-21 reporter: 13%; KDM4E inh: -10%; LMNA splice mod: inconclusive; G9a block: -19%

How did CC(=O)Nc1ccc(OCCOc2ccc([N+](=O)[O-])cc2)cc1 do in these assays?
Sfp PPTase inh: 89µM*; miR-21 reporter: -18%; KDM4E inh: -15%; G9a block: inconclusive

How did CC(=O)Nc1ccc(OCCOc2ccc(NC(C)=O)cc2)cc1 do in these assays?
Sfp PPTase inh: 6%; miR-21 reporter: 1%; G9a block: 22%

Results for COc1ccccc1NC(=O)C(C)OC(=O)C1CCC(C(C)(C)C)CC1 (stereo not given) ?
G9a block: 65%

The list goes on; it opens with the three that closed the last part.
How did CC(=O)Nc1ccc(OCCOc2ccc([N+](=O)[O-])cc2)cc1 do in these assays?
Sfp PPTase inh: 89µM*; miR-21 reporter: -18%; KDM4E inh: -15%; G9a block: inconclusive

How did CC(=O)Nc1ccc(OCCOc2ccc(NC(C)=O)cc2)cc1 do in these assays?
Sfp PPTase inh: 6%; miR-21 reporter: 1%; G9a block: 22%

Results for COc1ccccc1NC(=O)C(C)OC(=O)C1CCC(C(C)(C)C)CC1 (stereo not given) ?
G9a block: 65%

What do the screens show for `COc1cc(OC)cc(-c2oc3cccnc3c2C#CCCO)c1`?
Sfp PPTase inh: -20%; miR-21 reporter: -17%; G9a block: inconclusive

What do the screens show for `CC(C)OCCCNC(=O)Cn1ccc2cc(S(=O)(=O)N3CCCCC3)ccc21`?
Sfp PPTase inh: 14%; miR-21 reporter: -3%; G9a block: 63%

Results for Cc1ccc(NC(=O)CCS(=O)(=O)c2cc3c4c(c2)CCN4C(=O)CC3)c(C)c1 ?
miR-21 reporter: 0%; G9a block: -8%[59 µM]

What do the screens show for `CN1CCCN(S(=O)(=O)c2cccc(Cl)c2Cl)CC1`?
ALDH1A1 inh: 2%; Sfp PPTase inh: 11%; miR-21 reporter: -4%; KDM4E inh: 16%; LMNA splice mod: inconclusive; G9a block: 45µM*

What do the screens show for `COc1ccc2nc(C)cc(SCC(=O)OC(C)C)c2c1`?
ALDH1A1 inh: inconclusive; Sfp PPTase inh: 18%; miR-21 reporter: -5%; KDM4E inh: inconclusive; G9a block: 31%

How did COc1cccc2c(SCC(=O)N/N=C/c3ccc(O)c(O)c3)cc(C)nc12 do in these assays?
ALDH1A1 inh: 8%; Sfp PPTase inh: 4%; miR-21 reporter: 0%; KDM4E inh: 16µM*; G9a block: 35µM*

How did Cc1cc(SCC(=O)N/N=C/c2ccc(O)c(O)c2)nc2ccccc12 do in these assays?
Sfp PPTase inh: -17%; miR-21 reporter: -3%

What do the screens show for `COc1ccc2c(c1)c(C(=O)N/N=C/c1ccc(O)c(O)c1)c(C)n2C`?
ALDH1A1 inh: -14%; Sfp PPTase inh: -30%; miR-21 reporter: -4%; KDM4E inh: 14µM*; LMNA splice mod: inconclusive; G9a block: 50µM*

What do the screens show for `Cc1cc(SCC(=O)N/N=C/c2ccc(O)c(O)c2)c(C)cc1Br`?
ALDH1A1 inh: 5%; Sfp PPTase inh: inconclusive; miR-21 reporter: -3%; KDM4E inh: inconclusive; LMNA splice mod: -6%; G9a block: 25µM*

What do the screens show for `COc1ccc2nc(C)cc(SCC(NC(C)=O)C(=O)OC(C)C)c2c1` (stereo not given)?
ALDH1A1 inh: inconclusive; Sfp PPTase inh: -25%; miR-21 reporter: -2%; KDM4E inh: inconclusive; G9a block: 40µM*

Bioassay records (PubChem)
